Sequences of proteins named here, by UniProt entry; tags and fusion partners are left off.
UniProt P50406, whole entry: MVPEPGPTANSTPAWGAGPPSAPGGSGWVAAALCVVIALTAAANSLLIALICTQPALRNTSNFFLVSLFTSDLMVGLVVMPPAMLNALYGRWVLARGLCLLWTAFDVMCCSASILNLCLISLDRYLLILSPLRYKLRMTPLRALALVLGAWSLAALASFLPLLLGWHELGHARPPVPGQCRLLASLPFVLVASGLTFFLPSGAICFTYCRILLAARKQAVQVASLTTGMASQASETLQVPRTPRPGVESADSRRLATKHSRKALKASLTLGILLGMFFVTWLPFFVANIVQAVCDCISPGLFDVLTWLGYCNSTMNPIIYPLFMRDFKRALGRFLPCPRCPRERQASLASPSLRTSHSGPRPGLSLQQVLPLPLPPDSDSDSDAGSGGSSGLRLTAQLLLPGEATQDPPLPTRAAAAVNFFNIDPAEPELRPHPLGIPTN

According to ChEMBL document CHEMBL1949664, “Epiminocyclohepta[b]indole analogs as 5-HT6 antagonists” (Bioorg Med Chem Lett, 2012):

Target: T1, 5-hydroxytryptamine receptor 6 (Homo sapiens, UniProt P50406)
Experiment: Displacement of [3H]LSD from human 5-HT6 serotonin receptor by scintillation proximity assay
Details: not given
Procedure, shortened: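 SPA with human 5-HT6 receptor membranes (2.5 µg/well), 10 nM [N-methyl-3H]-LSD, WGA SPA beads, in 50 mM Tris-HCl pH 7.5, 5 mM MgCl2, 1 mM EDTA, 4% DMSO final. Ten competitor concentrations in duplicate; IC50 from specific binding, Ki by Cheng–Prusoff. Means of at least two determinations.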
For `Cn1c2c(c3cc(S(=O)(=O)c4csc5ccccc45)ccc31)C1CCC(C2)N1` (racemic), the Ki was 0.33 nM. `Cn1c2c(c3cc(S(=O)(=O)c4ccccc4)ccc31)C1CCC(C2)N1` (racemic) gave a Ki of 8.2 nM. Work on `Cn1c2c(c3cc(S(=O)(=O)c4ccccc4)ccc31)C1CCC(C2)N1` (single isomer, unassigned; (-)) [listing 1 of 2 here] yielded a Ki of 15 nM. Molecule `Cn1c2c(c3cc(S(=O)(=O)c4cccc(C(F)(F)F)c4)ccc31)C1CCC(C2)N1` (single isomer, unassigned; (-)) [listing 1 of 2 here] has a Ki of 3.7 nM. Molecule `Cn1c2c(c3cc(S(=O)(=O)c4cccc(OC(F)(F)F)c4)ccc31)C1CCC(C2)N1` (racemic) has a Ki of 7.2 nM. With `Cn1c2c(c3cc(S(=O)(=O)c4cccc(C(F)(F)F)c4)ccc31)C1CCC(C2)N1` (racemic) the Ki was 2.4 nM. In the case of `Cn1c2c(c3cc(S(=O)(=O)c4ccccc4)ccc31)C1CCC(C2)N1` (single isomer, unassigned; (+)) [listing 1 of 2 here], the Ki is reported as 9.6 nM. `Cn1c2c(c3cc(S(=O)(=O)c4cccc(C(F)(F)F)c4)ccc31)C1CCC(C2)N1` (single isomer, unassigned; (+)) [listing 1 of 2 here] gave a Ki of 1.5 nM. Work on `Cn1c2c(c3cc(S(=O)(=O)c4csc5ccccc45)ccc31)C1CCC(C2)N1` (single isomer, unassigned) [listing 1 of 2 here] yielded a Ki of 0.28 nM.

Target: T1, 5-hydroxytryptamine receptor 6
Experiment: Antagonist activity at human 5-HT6 serotonin receptor expressed in CHO-1 cells assessed as inhibition of 5-hydroxytryptamine-induced cAMP production
Type: functional, cell-based
Details: not given
Procedure, shortened: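 CHO-1 cells expressing human 5-HT6; cAMP production measured under 30 nM 5-HT challenge (EC80), relative to EC80 control wells. Ten concentrations in duplicate; IC50 converted to Kb by modified Cheng–Prusoff. Means of at least two determinations.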
`Cn1c2c(c3cc(S(=O)(=O)c4ccccc4)ccc31)C1CCC(C2)N1` (single isomer, unassigned; (+)) [listing 2 of 2 here] showed a Kb of 3.9 nM. Molecule `Cn1c2c(c3cc(S(=O)(=O)c4csc5ccccc45)ccc31)C1CCC(C2)N1` (single isomer, unassigned; (-)) [listing 1 of 2 here] has a Kb of 3.4 nM. With `Cn1c2c(c3cc(S(=O)(=O)c4ccc5[nH]ccc5c4)ccc31)C1CCC(C2)N1` (single isomer, unassigned; (-)) [listing 1 of 2 here] the Kb was 1.6 nM. `Cn1c2c(c3cc(S(=O)(=O)c4c[nH]c5ccccc45)ccc31)C1CCC(C2)N1` (single isomer, unassigned; (-)) [listing 1 of 2 here] gave a Kb of 2.8 nM. Work on `Cn1c2c(c3cc(S(=O)(=O)c4c[nH]c5ccccc45)ccc31)C1CCC(C2)N1` (single isomer, unassigned; (+)) [listing 1 of 2 here] yielded a Kb of 2.6 nM. `Cn1c2c(c3cc(S(=O)(=O)c4ccccc4)ccc31)C1CCC(C2)N1` (single isomer, unassigned; (-)) [listing 2 of 2 here] showed a Kb of 11 nM. Molecule `Cn1c2c(c3cc(S(=O)(=O)n4ccc5ccccc54)ccc31)C1CCC(C2)N1` (single isomer, unassigned; (+)) [listing 1 of 2 here] has a Kb of 9.7 nM. Molecule `Cn1c2c(c3cc(S(=O)(=O)c4cccc(C(F)(F)F)c4)ccc31)C1CCC(C2)N1` (single isomer, unassigned; (+)) [listing 2 of 2 here] has a Kb of 12 nM. `Cn1c2c(c3cc(S(=O)(=O)c4csc5ccccc45)ccc31)C1CCC(C2)N1` (single isomer, unassigned) [listing 2 of 2 here] gave a Kb of 2.5 nM. Work on `Cn1c2c(c3cc(S(=O)(=O)c4cccc(C(F)(F)F)c4)ccc31)C1CCC(C2)N1` (single isomer, unassigned; (-)) [listing 2 of 2 here] yielded a Kb of 15 nM. With `Cn1c2c(c3cc(S(=O)(=O)c4ccc5[nH]ccc5c4)ccc31)C1CCC(C2)N1` (single isomer, unassigned; (+)) the Kb was 1.5 nM. For `Cn1c2c(c3cc(S(=O)(=O)n4ccc5ccccc54)ccc31)C1CCC(C2)N1` (single isomer, unassigned; (-)) [listing 1 of 2 here], the Kb was 10 nM.

System: not listed separately
Experiment: (§1) Efflux ratio of permeability from basolateral to apical side over apical to basolateral side in human Caco2 cells
Type: ADME, cell-based
Details: caco-2
Procedure, shortened: (§2)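 Caco-2 monolayers; basolateral-to-apical flux divided by apical-to-basolateral flux.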
`Cn1c2c(c3cc(S(=O)(=O)c4cccc(C(F)(F)F)c4)ccc31)C1CCC(C2)N1` (single isomer, unassigned; (-)) [listing 1 of 2 here] gave an efflux ratio of 2.8. With `Cn1c2c(c3cc(S(=O)(=O)n4ccc5ccccc54)ccc31)C1CCC(C2)N1` (single isomer, unassigned; (-)) [listing 2 of 2 here] the efflux ratio was 2.2. Work on `Cn1c2c(c3cc(S(=O)(=O)c4csc5ccccc45)ccc31)C1CCC(C2)N1` (single isomer, unassigned; (-)) [listing 2 of 2 here] yielded an efflux ratio of 3.7. For `Cn1c2c(c3cc(S(=O)(=O)c4ccc5[nH]ccc5c4)ccc31)C1CCC(C2)N1` (single isomer, unassigned; (-)) [listing 2 of 2 here], the efflux ratio was 40.

System: Caco-2
Experiment: as §1
Type: ADME, cell-based
Details: not given
Procedure, shortened: as §2
`Cn1c2c(c3cc(S(=O)(=O)c4c[nH]c5ccccc45)ccc31)C1CCC(C2)N1` (single isomer, unassigned; (-)) [listing 2 of 2 here] showed a Ratio of 2.5. `Cn1c2c(c3cc(S(=O)(=O)c4c[nH]c5ccccc45)ccc31)C1CCC(C2)N1` (single isomer, unassigned; (+)) [listing 2 of 2 here] gave a Ratio of 8.5. Molecule `Cn1c2c(c3cc(S(=O)(=O)n4ccc5ccccc54)ccc31)C1CCC(C2)N1` (single isomer, unassigned; (+)) [listing 2 of 2 here] has a Ratio of 1.9. With `Cn1c2c(c3cc(S(=O)(=O)c4cccc(C(F)(F)F)c4)ccc31)C1CCC(C2)N1` (single isomer, unassigned; (+)) [listing 1 of 2 here] the Ratio was 1.8. With `Cn1c2c(c3cc(S(=O)(=O)c4csc5ccccc45)ccc31)C1CCC(C2)N1` (single isomer, unassigned) [listing 1 of 2 here] the Ratio was 2.8.
